Common to all, as to parameters: expressed in transfected cells
For experiment [1], the target named is T1, CB2 receptor (Homo sapiens, UniProt P34972). The experiment can be described thus: [35S]GTPγS binding in human CB2 receptor-expressing CHO cell membranes. The experiment is classed as biochemical. The note with it: in words. A general note: Binding of GTPγS marks nucleotide exchange on a G protein.
Experiment [2] deals with T1, CB2 receptor. The note with it: previously reported by the applicants (literature refs); read-out: Ki at CB2 receptor; cited from earlier work.
Experiment [3] addresses T1, CB2 receptor. The experiment can be described thus: CB2 assay: displacement of [3H]CP-55,940 from cloned human CB2 receptor preparation (transfected HEK 293 cells). The experiment is classed as binding. In general terms: In a radioligand displacement assay an active substance lowers the binding of a labelled ligand.

Sequences of proteins named here, by UniProt entry; tags and fusion partners are left off.
UniProt P34972, whole entry: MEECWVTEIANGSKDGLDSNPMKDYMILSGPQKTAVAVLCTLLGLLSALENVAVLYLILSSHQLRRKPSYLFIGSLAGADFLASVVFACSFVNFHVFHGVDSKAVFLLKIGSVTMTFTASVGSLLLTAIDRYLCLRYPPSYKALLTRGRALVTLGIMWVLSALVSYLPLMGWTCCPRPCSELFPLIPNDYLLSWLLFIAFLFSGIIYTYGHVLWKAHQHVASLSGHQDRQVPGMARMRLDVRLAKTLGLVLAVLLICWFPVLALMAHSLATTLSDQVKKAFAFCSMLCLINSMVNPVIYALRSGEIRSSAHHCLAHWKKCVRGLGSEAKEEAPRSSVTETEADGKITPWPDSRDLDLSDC

Like-named read-outs stand apart in the source and are kept apart here.

By Ki is commonly meant a measure of affinity in units of concentration, obtained from inhibition or displacement. Turning to “1-Methoxy-3-(1′,1′-dimethylhexyl)-Δ^8-THC [Compound 6e]”, the “efficacy in the [35S]GTPγS assay relative to CP-55,940” value in experiment [1] is “partial agonists”. Besides, in experiment [2], the Ki is 0.018 ± 0.002 µM.

In experiment [3], `CC(C)(C)c1ccc2c(c1)OC(C)(C)C1CC=C(CO)CC21` (stereo not drawn) [Compound 9a, 1-Deoxy-3-(1′,1′-dimethylethyl)-11-hydroxy-Δ^8-THC] displayed a Ki of 0.018 ± 0.002 µM.

(Values after US20050009903A1, “CB2-selective cannabinoid analogues” (priority 2003, published 2005).)
